Source: PMC8166883 (2020)

Chains of the proteins cited; added tags and fusions are not shown. A line that says so, or that is headed by a name, gives the form on record, which may keep a tag or linker.
UniProt P15692, other isoform, or with tags, fused parts or gaps: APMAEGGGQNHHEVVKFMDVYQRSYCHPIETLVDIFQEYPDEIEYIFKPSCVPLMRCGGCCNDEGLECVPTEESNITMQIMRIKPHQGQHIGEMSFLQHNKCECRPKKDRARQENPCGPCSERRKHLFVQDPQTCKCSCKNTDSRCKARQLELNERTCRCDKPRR
UniProt P01375, whole entry: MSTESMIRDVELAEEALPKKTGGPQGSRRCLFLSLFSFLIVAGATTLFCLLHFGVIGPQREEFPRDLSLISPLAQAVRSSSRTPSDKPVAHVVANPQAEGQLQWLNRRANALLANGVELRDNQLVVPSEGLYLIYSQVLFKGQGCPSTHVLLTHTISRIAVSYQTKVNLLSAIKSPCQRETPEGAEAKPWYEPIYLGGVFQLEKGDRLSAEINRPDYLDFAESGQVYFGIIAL

Columns and labels:
Test in all cases: SPR
[1] = target: FLAG-tagged human vascular endothelial growth factor-A (FLAG-hVEGF-A) (human, UniProt P15692 1-395)
[2] = target: T1, FLAG-tagged human tumor necrosis factor α (FLAG-hTNFα) (human, UniProt P01375 1-233)
[3] = target: T1, FLAG-tagged human tumor necrosis factor …; remark: listed apart in the source

Row | koff [1] | Binder | koff [2] | Kd [3]
1 | 0.00147 s⁻¹ | anti-hVEGF-A clone C018AM-20 (affinity-matured from C018) (antibody, V domains shown) VH: EVQLLESGGGLVQPGGSLRLSCAASGFTFSSYAMSWVRQAPGKGLEWVSSISGSGGNTYYADSVKGRFTISRDNSKNTLYLQMNSLRAEDTAVYYCAKDTERIQLWLGFDYWGQGTPVTVSS VL: DIQMTQSPSSLSASVGDRVTITCRASESISSYLAWYQQKPGKAPKLLIYAPSNLESGVPSRFSGSGSGTDFTLTINSLQPEDFATYYCQQYYSTPLTFGQGTKLEIK |  | 
2 | 31.5 s⁻¹ | anti-hVEGF-A clone C018 (antibody, V domains shown) VH: not shown VL: DIQMTQSPSSLSASVGDRVTITCRASESISSYLAWYQQKPGKAPKLLIYAPSNLESGVPSRFSGSGSGTDFTLTINSLQPEDFATYYCQQYYSTPLTFGQGTKLEIK |  | 
3 |  | anti-human TNFα clone #314 (antibody, V domains shown) VH: not shown VL: DIQMTQSPSSLSASVGDRVTITCRASQSISDYLHWYQQKPGKAPKLLIYDASNLESGVPSRFSGSGSGTDFTLTINSLQPEDFATYYCQQYYSTPLTFGQGTKLEIK | 0.00467 s⁻¹ | 4.4 nM
4 |  | anti-human TNFα clone #314AM-043-01 (after two rounds of affinity maturation of #314) (antibody, V domains shown) VH: EVQLLESGGGLVQPGGSLRLSCAASGFTFSSYAMSWVRQAPGKGLEWVSAISSSSGGSTYYADSVKGRFTISRDNSKNTLYLQMNSLRAEDTAVYYCARSIVGATLDFDYWGQGTTVTVSS VL: DIQMTQSPSSLSASVGDRVTITCRASQSISDYLHWYQQKPGKAPKLLIYDASNLESGVPSRFSGSGSGTDFTLTINSLQPEDFATYYCQQYYSTPLTFGQGTKLEIK | 0.000683 s⁻¹ | 0.358 nM
